Assay results as given in US20050282910A1, “Methods of application of chemical compounds having therapeutic activities in treating cancers” (priority 2003, published 2005).
Where two headings read alike, the source gives them in different places.

Assays:
K562/adr = experiment: Reversal of drug resistance by ethanol extracts of Schisandra chinensis fruit, MTT cytotoxicity of anticancer agents; assay type: cell-based, human; details: by ethanol extracts (50 μg/ml)
[1] = test system: human leukemia MDR cell line K562/adr; experiment: Reversal of P-glycoprotein-mediated drug resistance by Schisandrin A, Schisandrol A, Schisantherin A, MTT cytotoxicity of anticancer agents; assay type: cell-based
[2] = test system: human epidermoid carcinoma MDR cell line KBv200
[3] = test system: human breast cancer MDR cell line MCF7/adr
KBv200 = experiment: Reversal of drug resistance by ethanol extracts of Schisandra chinensis fruit, MTT cytotoxicity of anticancer agents; details: by ethanol extracts (50 μg/ml)
MCF7/adr = experiment: as above; details: by ethanol extracts (50 μg/ml)

Structure (SMILES): COc1cccc2c1C(=O)c1c(O)c3c(c(O)c1C2=O)C[C@@](O)(C(C)=O)C[C@@H]3O[C@H]1C[C@H](N)[C@H](O)[C@H](C)O1 [Daunorubicin]
- RF (reversal folds of drug resistance) (K562/adr): 10.7
- RF (reversal folds of drug resistance) ([1]; by Schisandrin A (10 μg/ml)): 71.2
- RF (reversal folds of drug resistance) ([1]; by Schisantherin A (10 μg/ml)): 18.3
- RF (reversal folds of drug resistance) ([2]; by Schisandrin A (10 μg/ml)): 10.9
- RF (reversal folds of drug resistance) ([2]; by Schisantherin A (10 μg/ml)): 7.9
- RF (reversal folds of drug resistance) ([3]; by Schisandrin A (10 μg/ml)): 10.4
- RF (reversal folds of drug resistance) ([3]; by Schisantherin A (10 μg/ml)): 13.8
- RF (reversal folds of drug resistance) (KBv200): 10
- RF (reversal folds of drug resistance) (MCF7/adr): 10.3
